Measurements reported in PubChem BioAssay (Tox21).
Where “and” joins values, the source holds several entries; their conditions need not be identical. Identical values can stand only once. Only a part is listed here, and it is no random draw. Records with an inconclusive call do not appear. Calls of active or inactive are those of the source. The call rests on the fitted dose curve; in most records, active means well fitted cell-killing curve with a large enough effect in the repeat runs; inconclusive means weak or mixed curves, or effect the other way; inactive means no such curve, though single readings can be large or run the other way.

test: qHTS assay to identify small molecule agonists of the vitamin D receptor (VDR) signaling pathway - cell viability counter screen (AID 743224); conditions: VDR-bla HEK293T viability, CellTiter-Glo luminescence, 16 h; series mostly up to 62.6 µM; activity change, negative = cytotoxicity: at the top concentration; further: nearly all actives have a fitted effect of over 50% in size
From the text: U.S. Tox21 Program National Center for Advancing Translational Sciences [NCATS] NIH Chemical Genomics Center [NCGC] U.S. Environmental Protection Agency [EPA] National Institutes of Environmental Health Sciences [NIEHS] National Toxicology Program [NTP] U.S. Food and Drug Administration [FDA] Tox21 Assay Overview: The vitamin D receptor (VDR), a member of nuclear hormone receptor superfamily, plays a critical role in calcium homeostasis and bone metabolism. It is also involved in cell differentiation and growth, and thrombogenicity. […] The cytotoxicity of the Tox21 compound library against the VDR-bla cell line was tested in parallel by measuring the cell viability using CellTiter-Glo assay (Promega, Madison, WI) in the same wells.
Tox21 Assay Protocol Summary: VDR-bla cells were dispensed at 2,000 cells/6 uL/well into black wall/clear-bottom 1536-well plates using a Multidrop Combi (Thermo Fisher Scientific, Waltham, MA) dispenser. After the assay plates were incubated at a 37C and 5% CO2 for 4 h, 23 nL of compounds dissolved in DMSO, positive controls or DMSO only was transferred to the assay plate by a Pintool station (Kalypsys, San Diego, CA). The plates were incubated at 37C and 5% CO2 for 16 h. After 1 uL of LiveBLAzerTM B/G FRET substrate was added using a Bioraptr Flying Reagent Dispenser (FRD) workstation (Beckman Coulter, Indianapolis, IN, USA), the plates were incubated at room temperature for 2 h, and fluorescence intensity was measured by an Envision plate reader (PerkinElmer, Shelton, CT). For cell viability readout that measures cytotoxicity, 3 ul/well of CellTiter-Glo reagent was added into the assay plates using a FRD. After 30 min incubation at room temperature, the luminescence intensity in the plates was measured using a ViewLux (PerkinElmer) plate reader.
On the % scale 0 is the no-effect control and ±100 the full control effect; potency means the concentration at half of the fitted maximal effect.

Compound	activity change, negative = cytotoxicity	Potency
CCOP(=S)(CC)Sc1ccccc1 (configuration not stated)	inactive: 20.3%	
O=[N+]([O-])c1ccc(S(=O)(=O)O)c([N+](=O)[O-])c1	inactive: 6.55% [at 81.1 µM]	
O=C1C2CC=CCC2C(=O)N1SC(Cl)(Cl)C(Cl)Cl (configuration not stated)		active: 7.82 µM and active: 1.74 µM
CCCCC(CC)CO[P+](=O)OCC(CC)CCCC (configuration not stated)	inactive: -2.78%	
CN(N=O)C(=N)N[N+](=O)[O-]	inactive: 18.3%	
O=[P+](Oc1ccccc1)Oc1ccccc1	inactive: 1.31%	
CN(C(=O)Cc1cccc2occc12)[C@H]1CC[C@@]2(CCCO2)C[C@@H]1N1CCCC1	inactive: -1.08%	
CN(C(=O)Cc1ccc(Cl)c(Cl)c1)[C@H]1CC[C@@]2(CCCO2)C[C@@H]1N1CCCC1	inactive: -11.9%	
COC(=O)Cl	inactive: 0.22%	
CCNC(C)Cc1ccc2c(c1)OCO2 (configuration not stated)	inactive: -14.6% [at 81.1 µM]	
CN(C(=O)Cc1ccccc1)[C@H]1CC[C@@]2(CCCO2)C[C@@H]1N1CCCC1	inactive: 2.3%	
ClP(Cl)c1ccccc1	inactive: 7.42%	
O=P(Cl)(Cl)c1ccccc1	inactive: 1.91%	
CCCCO[P+](=O)OCCCC		inactive
Cc1cc([N+](=O)[O-])cc([N+](=O)[O-])c1O		active: 49 µM
CCCCCCCCCCCCCC[P+](CCCCCC)(CCCCCC)CCCCCC		active: 6.15 µM
Cc1cc([N+](=O)[O-])c(O)c([N+](=O)[O-])c1	inactive: -3.47% [at 81.1 µM]	
O=[p+]1oc2ccccc2c2ccccc21 (configuration not stated)	inactive: -0.198%	
O=P(Cl)(Oc1ccccc1)Oc1ccccc1	inactive: 4.4%	
CCOC(=O)Cl	inactive: -1.56%	
CC(C)CCCCCCCOP(OCCCCCCCC(C)C)Oc1ccccc1	inactive: -17.6%	
COP(=S)(Cl)OC	inactive: -0.885% [at 81.1 µM]	
